Results taken from patent US9732063B2, “Kinase inhibitors” (RESPIVERT LIMITED, priority 2012, dated 2017).

Amino acid sequences for entries named in this document (tags omitted). A change or cut given only in a name is not applied to a line headed by its entry.
UniProt P49840: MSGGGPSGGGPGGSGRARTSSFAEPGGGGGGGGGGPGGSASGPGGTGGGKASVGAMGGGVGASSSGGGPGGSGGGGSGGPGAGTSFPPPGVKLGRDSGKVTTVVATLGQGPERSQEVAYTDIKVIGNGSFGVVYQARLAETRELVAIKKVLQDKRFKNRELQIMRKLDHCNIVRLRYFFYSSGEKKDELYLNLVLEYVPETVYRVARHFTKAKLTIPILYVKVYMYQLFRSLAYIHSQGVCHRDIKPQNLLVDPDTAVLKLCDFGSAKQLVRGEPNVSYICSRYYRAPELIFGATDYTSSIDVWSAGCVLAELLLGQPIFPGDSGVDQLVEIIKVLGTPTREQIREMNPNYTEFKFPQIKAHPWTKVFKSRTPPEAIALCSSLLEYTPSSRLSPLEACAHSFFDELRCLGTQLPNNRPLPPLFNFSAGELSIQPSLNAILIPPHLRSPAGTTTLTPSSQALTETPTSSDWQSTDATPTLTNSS

molecular target: Syk (Homo sapiens (Human), UniProt P43405); assay: Syk enzyme inhibition (Z-LYTE FRET); assay type: biochemical; settings: not given
Procedure: (§1) The enzyme inhibitory activities of compounds disclosed herein are determined by FRET using synthetic peptides labelled with both donor and acceptor fluorophores (Z-LYTE, Invitrogen Ltd., Paisley, UK).
The relevant enzyme (3000 ng/mL or 2000 ng/mL respectively, 2.5 μL) is incubated with the test compound (either 4 μg/mL, 0.4 μg/mL, 0.04 μg/mL, or 0.004 μg/mL, 2.5 μL each) for 2 hr at RT. The FRET peptides (8 μM, 2.5 μL), and appropriate ATP solutions (2.5 μL, 800 μM for c-Src, and 60 μM ATP for Syk) are then added to the enzymes/compound mixtures and incubated for 1 hr. Development reagent (protease, 5 μL) is added for 1 hr prior to detection in a fluorescence microplate reader (Varioskan® Flash, ThermoFisher Scientific).
(§2) In all cases, the site-specific protease cleaves non-phosphorylated peptide only and eliminates the FRET signal. Phosphorylation levels of each reaction are calculated using the ratio of coumarin emission (donor) over fluorescein emission (acceptor), for which high ratios indicate high phosphorylation and low ratios indicate low phosphorylation levels.

Q: COCCOCCOCCOc1cc(Nc2nccc(Oc3ccc(NC(=O)Nc4cc(C(C)C)nn4-c4ccc(C)cc4)c(Cl)c3Cl)n2)cc(OC)c1 [Example 35, 1-(2,3-Dichloro-4-((2-((3-methoxy-5-(2-(2-(2-methoxyethoxy)ethoxy)ethoxy)phenyl)-amino)pyrimidin-4-yl)oxy)phenyl)-3-(3-isopropyl-1-(p-tolyl)-1H-pyrazol-5-yl)urea] was tested. Which IC50 did it give?
A: 0.03 µM

Q: For COc1cc(Nc2nccc(Oc3ccc(NC(=O)Nc4cc(C(C)(C)C)nn4-c4ccc(OC)nc4)c4ccccc34)n2)cc(S(=O)(=O)C2CC2)c1 [Example 61, 1-(3-(tert-Butyl)-1-(6-methoxypyridin-3-yl)-1H-pyrazol-5-yl)-3-(4-((2-((3-(cyclopropylsulfonyl)-5-methoxyphenyl)amino)pyrimidin-4-yl)oxy)naphthalen-1-yl)urea], which IC50 is on record?
A: 0.12 µM

Q: How did the IC50 turn out when COCCOCCOCCOc1cc(Nc2nccc(Oc3ccc(NC(=O)Nc4cc(C(C)(C)C)nn4-c4ccc(N(C)C)cc4)c4ccccc34)n2)cc(OC)c1 [Example 63, 1-(3-(tert-Butyl)-1-(4-(dimethylamino)phenyl)-1H-pyrazol-5-yl)-3-(4-((2-((3-methoxy-5-(2-(2-(2-methoxyethoxy)ethoxy)ethoxy)phenyl)amino)pyrimidin-4-yl)oxy)naphthalen-1-yl)urea] was run?
A: 0.016 µM

molecular target: GSK3α (Homo sapiens (Human), UniProt P49840); assay: GSK 3α enzyme inhibition (Z-LYTE FRET, Method 2); assay type: biochemical; settings: not given
Procedure: as §1
The inhibitory activities of compounds of the invention against the GSK 3α enzyme isoform (Invitrogen), are evaluated by determining the level of activation/phosphorylation of the target peptide. The GSK3-α protein (500 ng/mL, 2.5 μL) is mixed with the test compound (2.5 μL at either 4 μg/mL, 0.4 μg/mL, 0.04 μg/mL, or 0.004 μg/mL) for 2 hr at RT. The FRET peptide (8 μM, 2.5 μL), which is a phosphorylation target for GSK3α, and ATP (40 μM, 2.5 μL) are then added to the enzyme/compound mixture and the resulting mixture incubated for 1 hr. Development reagent (protease, 5 μL) is added for 1 hr prior to detection in a fluorescence microplate reader (Varioskan® Flash, ThermoFisher Scientific).
as §2

Q: COCCOCCOCCOc1cccc(Nc2nccc(Oc3ccc(NC(=O)Nc4cc(C(C)(C)C)nn4-c4ccc(OC)nc4)c4ccccc34)n2)c1 [Example 4, 1-(3-(tert-Butyl)-1-(6-methoxypyridin-3-yl)-1H-pyrazol-5-yl)-3-(4-((2-((3-(2-(2-(2-methoxy-ethoxy)ethoxy)ethoxy)phenyl)amino)pyrimidin-4-yl)oxy)naphthalen-1-yl)urea] was tested. Which IC50 did it give?
A: 0.973 µM

Q: With C#Cc1cccc(Nc2nccc(Oc3ccc(NC(=O)Nc4cc(C(C)C)nn4-c4ccc(C)cc4)c4ccccc34)n2)c1 [Example 10, 1-(4-((2-((3-Ethynylphenyl)amino)pyrimidin-4-yl)oxy)naphthalen-1-yl)-3-(3-isopropyl-1-(p-tolyl)-1H-pyrazol-5-yl)urea] as the compound, how does the IC50 read?
A: > 10 µM

Q: With COc1cc(Nc2nccc(Oc3ccc(NC(=O)Nc4cc(C(C)C)nn4-c4ccc(C)cc4)c4ccccc34)n2)cc(OS(C)(=O)=O)c1 [Example 12, 3-((4-((4-(3-(3-Isopropyl-1-(p-tolyl)-1H-pyrazol-5-yl)ureido)naphthalen-1-yl)oxy)pyrimidin-2-yl)amino)-5-methoxyphenyl methanesulfonate] as the compound, how does the IC50 read?
A: > 10 µM

Q: Cc1ccc(-n2nc(C(C)C)cc2NC(=O)Nc2ccc(Oc3ccnc(Nc4cccc(N=S(C)(C)=O)c4)n3)c3ccccc23)cc1 [Example 14] was tested. Which IC50 did it give?
A: 0.416 µM

Q: How did the IC50 turn out when C#Cc1cc(Nc2nccc(Oc3ccc(NC(=O)Nc4cc(C(C)C)nn4-c4ccc(C)cc4)c4ccccc34)n2)cc(OC)c1 [Example 15, 1-(4-((2-((3-Ethynyl-5-methoxyphenyl)amino)pyrimidin-4-yl)oxy)naphthalen-1-yl)-3-(3-isopropyl-1-(p-tolyl)-1H-pyrazol-5-yl)urea] was run?
A: > 10 µM

Q: For COc1cc(Nc2nccc(Oc3ccc(NC(=O)Nc4cc(C(C)C)nn4-c4ccc(C)cc4)c4ccccc34)n2)cc(OCCOCCOCCO)c1 [Example 20, 1-(4-((2-((3-(2-(2-(2-Hydroxyethoxy)ethoxy)ethoxy)-5-methoxyphenyl)amino)pyrimidin-4-yl)oxy)naphthalen-1-yl)-3-(3-isopropyl-1-(P-tolyl)-1H-pyrazol-5-yl)urea], which IC50 is on record?
A: 3.84 µM

Q: Which IC50 does the source give for COc1cc(Nc2nccc(Oc3ccc(NC(=O)Nc4cc(C(C)C)nn4-c4ccc(C)cc4)c(Cl)c3Cl)n2)cc(OCCN2CCOCC2)c1 [Example 21, 1-(2,3-Dichloro-4-((2-((3-methoxy-5-(2-morpholinoethoxyl)phenyl)amino)pyrimidin-4-yl)-oxy)phenyl)-3-(3-isopropyl-1-(p-tolyl)-1H-pyrazol-5-yl)urea] here?
A: > 10 µM

Q: COc1cc(Nc2nccc(Oc3ccc(NC(=O)Nc4cc(C(C)C)nn4-c4ccc(C)cc4)c4ccccc34)n2)cc(SCCO)c1 [Example 22] was tested. Which IC50 did it give?
A: 4.83 µM

Q: For COCCOCCOCCOc1cc(Nc2nccc(Oc3ccc(NC(=O)Nc4cc(C(C)(C)C)nn4-c4ccc(OC)cc4)c4ccccc34)n2)cc(OC)c1 [Example 44, 1-(3-(tert-Butyl)-1-(4-methoxyphenyl)-1H-pyrazol-5-yl)-3-(4-((2-((3-methoxy-5-(2-(2-(2-methoxyethoxy)ethoxy)ethoxy)phenyl)amino)pyrimidin-4-yl)oxy)naphthalen-1-yl)urea], which IC50 is on record?
A: 4.61 µM

Q: For COCCOCCOCCOc1cc(Nc2cc(Oc3ccc(NC(=O)Nc4cc(C(C)(C)C)nn4-c4ccc(C)cc4)c4ccccc34)ccn2)cc(OC)c1 [Example 56, 1-(3-(tert-Butyl)-1-(p-tolyl)-1H-pyrazol-5-yl)-3-(4-((2-((3-methoxy-5-(2-(2-(2-methoxyethoxy)ethoxy)ethoxy)phenyl)amino)pyridin-4-yl)oxy)naphthalen-1-yl)urea], which IC50 is on record?
A: > 10 µM

Q: For COc1cc(Nc2nccc(Oc3ccc(NC(=O)Nc4cc(C(C)(C)C)nn4-c4ccc(C)cc4)c(Cl)c3Cl)n2)cc(OCCN2CCOCC2)c1 [Example 59, 1-(3-(tert-Butyl)-1-(p-tolyl)-1H-pyrazol-5-yl)-3-(2,3-dichloro-4-((2-((3-methoxy-5-(2-morpholinoethoxy)phenyl)amino)pyrimidin-4-yl)oxy)phenyl)urea], which IC50 is on record?
A: 7.37 µM

Q: How did the IC50 turn out when COc1cc(Nc2nccc(Oc3ccc(NC(=O)Nc4cc(C(C)(C)C)nn4-c4ccc(C)cc4)c4ccccc34)n2)cc(OCCOCCOCCO)c1 [Example 62, 1-(3-(tert-Butyl)-1-(P-tolyl)-1H-pyrazol-5-yl)-3-(4-((2-((3-(2-(2-(2-hydroxyethoxy)ethoxy)ethoxy)-5-methoxyphenyl)amino)pyrimidin-4-yl)oxy)naphthalen-1-yl)urea] was run?
A: 1.03 µM

Q: COCCOCCOCCN(C)c1cc(Nc2nccc(Oc3ccc(NC(=O)Nc4cc(C(C)(C)C)nn4-c4ccc(C)cc4)c4ccccc34)n2)cc(OC)c1 [Example 67, 1-(3-(tert-Butyl)-1-(p-tolyl)-1H-pyrazol-5-yl)-3-(4-((2-((3-methoxy-5-((2-(2-(2-methoxyethoxy)ethoxy)ethyl)(methyl)amino)phenyl)amino)pyrimidin-4-yl)oxy)naphthalen-1-yl)urea] was tested. Which IC50 did it give?
A: 5.26 µM

system: TNBS-induced colitis; assay: not given; settings: dosed orally at 1 or 5 mg/kg, 2 days

Q: With COc1cc(Nc2nccc(Oc3ccc(NC(=O)Nc4cc(C(C)C)nn4-c4ccc(C)cc4)c4ccccc34)n2)cc(S(=O)(=O)C2CC2)c1 [Example 18, 1-(4-((2-((3-(Cyclopropylsulfonyl)-5-methoxyphenyl)amino)pyrimidin-4-yl)oxy)naphthalen-1-yl)-3-(3-isopropyl-1-(p-tolyl)-1H-pyrazol-5-yl)urea] as the compound, how does the “activity in in vivo model of colonic inflammation (histopathology analysis)” value (from here on “activity … (histopathology analysis)”) read?
A: significant activity

Q: For COc1cc(Nc2nccc(Oc3ccc(NC(=O)Nc4cc(C(C)C)nn4-c4ccc(C)cc4)c4ccccc34)n2)cc(SCCO)c1 [Example 22], which “activity … (histopathology analysis)” value is on record?
A: significant activity

Q: With COCCOCCOCCOc1cc(Nc2nccc(Oc3ccc(NC(=O)Nc4cc(C(C)(C)C)nn4-c4ccc(OC)cc4)c4ccccc34)n2)cc(OC)c1 [Example 44, 1-(3-(tert-Butyl)-1-(4-methoxyphenyl)-1H-pyrazol-5-yl)-3-(4-((2-((3-methoxy-5-(2-(2-(2-methoxyethoxy)ethoxy)ethoxy)phenyl)amino)pyrimidin-4-yl)oxy)naphthalen-1-yl)urea] as the compound, how does the “activity … (histopathology analysis)” value read?
A: significant activity

Q: COCCOCCOCCOCCOCCOCCOCCOc1cc(Nc2nccc(Oc3ccc(NC(=O)Nc4cc(C(C)(C)C)nn4-c4ccc(C)cc4)c4ccccc34)n2)cc(OC)c1 [Example 51, 1-(4-((2-((3-(2,5,8,11,14,17,20-Heptaoxadocosan-22-yloxy)-5-methoxyphenyl)amino)pyrimidin-4-yl)oxy)naphthalen-1-yl)-3-(3-(tert-butyl)-1-(p-tolyl)-1H-pyrazol-5-yl)urea] was tested. Which “activity … (histopathology analysis)” value did it give?
A: significant activity

Q: How did the “activity … (histopathology analysis)” value turn out when COCCOCCOCCOc1cc(Nc2cc(Oc3ccc(NC(=O)Nc4cc(C(C)(C)C)nn4-c4ccc(C)cc4)c4ccccc34)ccn2)cc(OC)c1 [Example 56, 1-(3-(tert-Butyl)-1-(p-tolyl)-1H-pyrazol-5-yl)-3-(4-((2-((3-methoxy-5-(2-(2-(2-methoxyethoxy)ethoxy)ethoxy)phenyl)amino)pyridin-4-yl)oxy)naphthalen-1-yl)urea] was run?
A: significant activity
